Laboratory results taken from paper PMC6287304 (Antiviral Chemistry & Chemotherapy, 2018).

Biological target: T1, VZV DNA pol (Varicella-zoster virus, UniProt P09252)
T1 sequence (P09252 1-1194): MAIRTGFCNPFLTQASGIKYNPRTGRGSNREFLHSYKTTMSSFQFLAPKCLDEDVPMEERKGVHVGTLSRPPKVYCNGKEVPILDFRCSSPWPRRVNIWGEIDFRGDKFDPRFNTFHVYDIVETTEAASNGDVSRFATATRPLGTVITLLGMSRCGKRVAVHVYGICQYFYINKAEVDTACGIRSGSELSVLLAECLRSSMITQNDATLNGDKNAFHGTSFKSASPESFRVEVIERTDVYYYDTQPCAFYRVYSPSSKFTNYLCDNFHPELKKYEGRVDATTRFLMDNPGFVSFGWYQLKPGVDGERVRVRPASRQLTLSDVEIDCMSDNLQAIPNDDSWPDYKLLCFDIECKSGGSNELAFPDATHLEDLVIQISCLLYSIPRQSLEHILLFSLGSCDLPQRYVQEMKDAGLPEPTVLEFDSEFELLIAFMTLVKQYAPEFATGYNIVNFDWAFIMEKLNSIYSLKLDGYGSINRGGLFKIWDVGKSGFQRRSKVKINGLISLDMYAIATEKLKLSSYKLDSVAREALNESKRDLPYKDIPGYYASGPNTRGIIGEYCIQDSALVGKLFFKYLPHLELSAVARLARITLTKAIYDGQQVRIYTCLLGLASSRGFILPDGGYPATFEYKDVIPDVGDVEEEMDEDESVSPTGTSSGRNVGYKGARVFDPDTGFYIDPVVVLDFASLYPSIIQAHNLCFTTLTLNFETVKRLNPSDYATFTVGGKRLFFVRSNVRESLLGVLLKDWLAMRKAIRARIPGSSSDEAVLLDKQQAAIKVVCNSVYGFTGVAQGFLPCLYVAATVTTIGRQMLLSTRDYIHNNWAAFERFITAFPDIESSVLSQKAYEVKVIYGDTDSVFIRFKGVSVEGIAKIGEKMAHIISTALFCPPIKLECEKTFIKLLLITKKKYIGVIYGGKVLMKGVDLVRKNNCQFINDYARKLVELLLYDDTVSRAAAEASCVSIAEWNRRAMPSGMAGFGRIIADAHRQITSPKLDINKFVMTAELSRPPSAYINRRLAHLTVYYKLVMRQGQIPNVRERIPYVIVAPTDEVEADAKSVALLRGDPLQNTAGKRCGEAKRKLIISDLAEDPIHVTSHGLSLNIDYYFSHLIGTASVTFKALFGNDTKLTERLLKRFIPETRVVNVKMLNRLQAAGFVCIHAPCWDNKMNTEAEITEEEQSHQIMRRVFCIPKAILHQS
Assay: DNA polymerase inhibition, VZV DNA pol
Assay type: biochemical
Details: read-out: IC50 VZV DNA pol dTTP; calf thymus DNA, radiolabeled [3H]dTTP

Q: Which IC50 does the source give for `O=C(O)P(=O)(O)O` [PFA pyrophosphate] here?
A: The IC50 was 0.18 ± 0.01 µM.
